Experimental findings from paper PMC9926490, “Structural Basis for Cyclosporin Isoform-Specific Inhibition of Cyclophilins from Toxoplasma gondii” (ACS Infectious Diseases, 2023) are described below.

By UniProt entry, the sequences of proteins in these tests, tags left out.
UniProt P62937, whole entry: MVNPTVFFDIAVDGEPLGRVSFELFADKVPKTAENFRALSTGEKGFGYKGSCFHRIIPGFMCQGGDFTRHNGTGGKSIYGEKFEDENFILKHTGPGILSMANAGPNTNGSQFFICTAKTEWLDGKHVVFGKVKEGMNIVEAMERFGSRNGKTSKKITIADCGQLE

The target of this test is cyclosporin A (CsA). The experiment in a line: ITC; CsA at 8-20 uM in the cell titrated with 66-400 uM Cyp, 20 °C, 50 mM Hepes pH 8.0, 100 mM NaCl, 0.4% ethanol; one set of sites; apparent Kd; N set to 1 for TgCyp18.4.

As to “human cyclophilin A (CypA) (from UniProt P62937 1-165) (enzyme)”, the dH is -10700 kJ mol^–1.
